ChEMBL document CHEMBL1125020 (J Med Chem, 1990)

Chains of the proteins cited; added tags and fusions are not shown.
UniProt P25099, whole entry: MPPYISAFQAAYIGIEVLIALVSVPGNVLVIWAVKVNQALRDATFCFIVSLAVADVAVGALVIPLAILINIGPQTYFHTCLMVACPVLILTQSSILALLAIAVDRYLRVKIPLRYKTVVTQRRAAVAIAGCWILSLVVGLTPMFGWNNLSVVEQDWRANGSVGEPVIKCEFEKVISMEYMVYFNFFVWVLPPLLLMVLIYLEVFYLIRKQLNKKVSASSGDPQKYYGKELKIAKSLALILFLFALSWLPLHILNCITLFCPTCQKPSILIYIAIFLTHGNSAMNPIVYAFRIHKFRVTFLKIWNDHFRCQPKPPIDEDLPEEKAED

Molecular target: Adenosine receptor A1 (Rattus norvegicus, UniProt P25099)

## OC[C@H]1O[C@@H](n2cnc3c(NCc4ccccc4)ncnc32)[C@H](O)[C@@H]1O [N6-BENZYLADENOSINE]
  Ki: 125 nM
